Laboratory results published in patent US4238620A, “Dibenz[b,f]oxepin and dibenzo[b,f]thiepin derivatives, process for preparation thereof, method of using the same, and compositions thereof” (priority 1978, dated 1980).

Tested on: rats
Assay: Overall comparison of lethal toxicity (Test 5)
Assay type: in vivo
Procedure: (a) Single administration in rats
The mortality was observed on the 7th day after single administration of test compounds, and LD50 -value was calculated according to the method of Litchfield and Wilcoxon.
(b) Repeated administrations in rats
Test compounds were orally administered once daily for 5 days, and LD50 -value was calculated from the mortality on the 6th day.

Q: Cc1ccc2c(c1)CC(=O)c1cc(CC(=O)O)ccc1O2 [compound B, 8-Methyl-10,11-dihydro-11-oxodibenz[b,f]oxepin-2-acetic acid] was tested. Which “toxicity relative to indomethacin” value (fraction of that of indomethacin) did it give?
A: Its value is “about 1/18”.

Q: And the “toxicity compared with indomethacin (in words)” value (vs indomethacin)?
A: Its value is “far weaker than those of indomethacin”.
